Test system: L02
Test: Cytotoxicity against human L02 cells assessed as reduction in cell viability by MTT assay
Type: cell-based

For `C=CC(=O)Nc1cc(Nc2nccc(-c3cn(C)c4ccccc34)n2)c(OC)cc1N(C)CCN(C)C` [OSIMERTINIB], which IC50 is on record?
Its IC50 is 1980 nM.
